Consider 13 molecules from patent US20260274913A1 (Amgen, published 2026).

By UniProt entry, the sequences of proteins in these tests, tags left out. Residues count along the entry.
UniProt Q9NP99, 21-234 limits assumed: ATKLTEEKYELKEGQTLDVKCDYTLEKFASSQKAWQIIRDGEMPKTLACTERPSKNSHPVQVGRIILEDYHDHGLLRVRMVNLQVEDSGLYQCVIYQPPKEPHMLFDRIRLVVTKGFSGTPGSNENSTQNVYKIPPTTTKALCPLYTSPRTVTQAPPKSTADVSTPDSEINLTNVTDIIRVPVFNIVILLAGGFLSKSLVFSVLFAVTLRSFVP
UniProt Q9NP99, 21-205: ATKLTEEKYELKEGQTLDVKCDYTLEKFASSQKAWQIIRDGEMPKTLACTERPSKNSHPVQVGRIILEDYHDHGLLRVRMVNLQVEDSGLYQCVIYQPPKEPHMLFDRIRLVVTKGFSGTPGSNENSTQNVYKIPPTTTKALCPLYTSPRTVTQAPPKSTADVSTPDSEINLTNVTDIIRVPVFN

Where a chain is given by its changes, count along the chain named.

Assay [1] has as its target T1, human TREM-1 (human, UniProt Q9NP99 21-234). The experiment in a line: cell-based or functional assay.
Assay [2] concerns the target T2, recombinant soluble human TREM-1-His protein (human, UniProt Q9NP99 21-205, biotinylated in the bead assays of Tables 6 and 7 (sites not given)).
T2 construct: also called b-huTREM-1-His; biotinylated human TREM-1-His antigen; not shown: His tag
The experiment in a line: BLI (Octet HTX), antibody captured on anti-human Fc sensor, soluble human TREM-1-His as analyte, 1:1 model. The procedure:
Briefly, TREM-1 hybridoma supernatants normalized to 10 μg/mL in DMEM null media were prepared by diluting 1:10 in OCTET® assay buffer (10 mM Tris, 0.1% Triton X-100, 150 mM NaCl, 1 mM CaCl₂), 0.1 mg/mL BSA, at pH 7.6) to a final test concentration of 1 μg/mL. Amine reactive second-generation AR2G Biosensors (Molecular Devices) were pre-incubated in 200 μL nanopore water for a minimum of 10 minutes at room temperature before use. The AR2G Biosensors were then activated for 5 minutes in a solution of 20 mM EDC (1-Ethyl-3-[3-dimethylaminopropyl]carbodiimide hydrochloride) (ForteBio) pre-mixed with 10 mM NHS (N-hydroxysulfosuccinimide) (ForteBio) in nanopore water. An in-house generated mouse anti-human Fc monoclonal antibody was coupled to the AR2G Biosensors at 10 μg/mL in 10 mM sodium acetate buffer at pH 5 for 5 minutes, quenched with 1M ethanolamine at pH 8.5 for 5 minutes, and then used to capture antibody from solution. The TREM-1 test antibodies were loaded onto the Biosensors for 5 minutes, and baseline measurements were taken for 1 minute. […] The association of recombinant human TREM-1 with the antibody-loaded sensor was measured for 5 minutes, followed by dissociation in OCTET® buffer for 10 minutes. Biosensors were then regenerated with 10 mM glycine at pH 1.7, reloaded with the same TREM-1 antibodies on the same sensors for 5 minutes, and the same method was used to measure association and dissociation of cyno TREM-1-His protein. Data was referenced using a 0 nM analyte reference sensor. Kinetic analysis was performed using a 1:1 Langmuir model with mass transfer in Genedata Screener software.
(Biolayer interferometry detects binding as a change in optical thickness at a sensor tip.)

The target in assay [3] is T1, human TREM-1. Kind of assay: flow cytometry competition, competitor PGLYRP1-His/PGN on HEK293 cells with human TREM1/DAP12, antibody 2.5 ug/mL. On the technique in general: Flow cytometry measures light scatter and fluorescence of single cells or particles in a stream.

B1: 50A12 Fab (Fab, V domains shown)
VH: EVQLVESGGGLVQPGGSLRLSCAASGFTFSSYWMSWVRQAPGKGLEWVANIKQDGSEEYYVDSVKGRFTISRDNAKNSLFLQMNSLRAEDTAVYYCARDYGDSFDYWGQGTLVTVSS
VL: DIQMTQSPSSVSASVGDRVTITCRASQGIRKWLAWYQQKPGRAPKLLIYAASRLQSGVPSRFSGSGSGTDFTLTISSLRPEDFATYYCLQAHGFPWTFGQGTKVEIK
As to B1, in the assay with human TREM-1 [1], the “Fab IC50-pSYK Assay (Trial 1), PGLYRP1/PGN-induced SYK phosphorylation” value came to 2850 pM.

B2: 57C10 Fab (Fab, V domains shown)
VH: QVQLVQSGAEVKKPGASVKVSCKASGYTFTRYDINWVRQATGQGLEWMGWLNPNSGNTGQTQKFRGRVTMTRNTSINTAYMELSSLRSEDTAVYYCARGGYTSAWRWYFDLWGRGTLVTVSS
VL: DIQMTQSPSSLSASVGDRVTITCQASQDINNHLNWYQQKPGKAPKLLIYDVSNLETGVPSSFSGSGCGTDFTFTISSLQPEDIATYFCQQYDKLPLTFGGGTKVEIE
For B2, in the assay with human TREM-1 [1], the “Fab IC50-pSYK Assay (Trial 1), PGLYRP1/PGN-induced SYK phosphorylation” value amounted to 273 pM and the “Fab IC50-pSYK Assay (Trial 2), PGLYRP1/PGN-induced SYK phosphorylation” value turned out to be 583 pM.

B3: 61B12 Fab (Fab, V domains shown)
VH: QVQLVQSGAEVTKPGASVKVSCKASGYTFTRYDINWVRQATGQGLEWMGWMNPNSGNSGSVQKFRGRVTMTRNTSITTVYMELSSLRSDDTAVYYCARGGISSSWHWAFDIWGQGTMVTVSS
VL: B2 VL with D50G, V51A, S52Y, N53T, S61R, C67S, F87Y, E107K
Regarding B3, in the assay with human TREM-1 [1], the “Fab IC50-pSYK Assay (Trial 1), PGLYRP1/PGN-induced SYK phosphorylation” value is 112 pM and the “Fab IC50-pSYK Assay (Trial 2), PGLYRP1/PGN-induced SYK phosphorylation” value came to 569 pM.

B4: 34D1 Fab (Fab, V domains shown)
VH: B2 VH with L51M, T58S, Q60S, T61V, N77H, T78I, A104S
VL: DIQMTQSPSSLSASVGDRVNITCQASQDIRKHLNWYQQKPGKAPNLLIYDAANLETGVPSRFSGSGSGTAFTFTISSLQPEDIATYYCQHYANLPITFGQGTRLEIK
As to B4, in the assay with human TREM-1 [1], the “Fab IC50-pSYK Assay (Trial 1), PGLYRP1/PGN-induced SYK phosphorylation” value turned out to be 314 pM and the “Fab IC50-pSYK Assay (Trial 2), PGLYRP1/PGN-induced SYK phosphorylation” value stood at 309 pM.

B5: 63F8 Fab (Fab, V domains shown)
VH: QVQLVQSGAEVKKPGASVKVSCKASGYTFTSYDINWVRQATGQGLEWMGRMNPKSGNAGYVQNFRGRVTMTRNTSISTAYMELSSLRSEDTAVYYCARGGRTSIWSFVFDYWGQGTLVTVSS
VL: B2 VL with N30S, N31K, V51T, S61R, C67S, F87N, E107K
On to B5, for which, in the assay with human TREM-1 [1], the “Fab IC50-pSYK Assay (Trial 1), PGLYRP1/PGN-induced SYK phosphorylation” value stood at 45.2 pM and the “Fab IC50-pSYK Assay (Trial 2), PGLYRP1/PGN-induced SYK phosphorylation” value was 38 pM.

B6: 61G5 Fab (Fab, V domains shown)
VH: QVQLVQSGAEVKKPGASVKVSCKASGYTFTSYDINWVRQATGQGLEWMGWMNPNSGNSGSVKKFRDRVTMTRNTSISTAYMELSSLRSEDTAVYYCVRLIGYSSAWKWSFQHWGQGTLVTVSS
VL: B4 VL with N20T, Q27R, R30S, H32Y, N45K, L47Q, A52S, A70D, A92D, L94I
Turning to B6, in the assay with human TREM-1 [1], the “Fab IC50-pSYK Assay (Trial 1), PGLYRP1/PGN-induced SYK phosphorylation” value was determined as 387 pM and the “Fab IC50-pSYK Assay (Trial 2), PGLYRP1/PGN-induced SYK phosphorylation” value amounted to 186 pM.

B7: 30H2 Fab (Fab, V domains shown)
VH: EVQVLESGGGLVQPGESLRLSCTASGFTFNAYAMSWVRQAPGKGLEWVSTISGSGSTTYYADSVKGRFTISRDNSKNTLDLQMNSLRAADTAVYYCAKVAGSNFFFDHWGQGTLVTVSS
VL: EIVMTQSPATLSVSPGERATLSCRASQSINSNLAWYQQKPGQAPRLLIYGAYTRATGIPDRFSGSGSGTEFTLTISSLQSEDFAVYYCQEFIMWPPWTFGLGTQVEIK
For B7, in the assay with human TREM-1 [1], the “Fab IC50-pSYK Assay (Trial 1), PGLYRP1/PGN-induced SYK phosphorylation” value worked out at 467 pM and the “Fab IC50-pSYK Assay (Trial 2), PGLYRP1/PGN-induced SYK phosphorylation” value worked out at 374 pM.

B8: 46H7 Fab (Fab, V domains shown)
VH: EVQLLESGGGMVQPGGSLRLSCAVSGFTFSRYAMSWVRQAPGKGLEWVSEMRGSSGSTYYADSVKGRFTISRDNSKNTLYLQMNSLRVEDTAIYYCAKEFSSNSLFDYWGQGTLVTVSS
VL: B7 VL with I29V, Q42R, Y52S, D60A, E90Q, I92Y, M93N, L101Q, Q104K
For B8, in the assay with human TREM-1 [1], the “Fab IC50-pSYK Assay (Trial 1), PGLYRP1/PGN-induced SYK phosphorylation” value amounted to 43.3 pM and the “Fab IC50-pSYK Assay (Trial 2), PGLYRP1/PGN-induced SYK phosphorylation” value was found to be 117 pM.

B9: 66B8 Fab (Fab, V domains shown)
VH: QVQLVQSGAEVKKPGASVKVSCKASGYTFTGYYMHWVRQAPGQGLEWMGWFKPNSGVTNYAQKFQGRVTMSRDTSISTAYMELSSLRSDDTAVYYCARAGYSTSWKDWFDPWGQGTLVTVSS
VL: DIQMTQFPSSVSASVGDRVTITCRASQGISRWLAWYQQKQGKAPKLLIYMVSSLQSGVPSRFSGSGSGTDFTLTISSLQPEDFATYYCQQSHNFPITFGQGTRLDIK
For B9, the “Fab IC50-pSYK Assay (Trial 1), PGLYRP1/PGN-induced SYK phosphorylation” value with human TREM-1 [1] is 4660 pM.

B10: 3E12 (antibody, V domains shown)
VH: QVQLVQSGAEVKKPGASVKVSCKASGYTFNGYYIHWVRQAPGQGLEWMGWLNPNSGGANYAQKFQGWVTMTRDTSISTAYMELSRLTSDDTAVYYCARDQRKTTVTPFEYWGQGTLVTVSS
VL: SYELTQPPSVSVSPGQTASITCSGDKLGERNVCWYQLKPGQSPILVIYQDNKRPSGIPERFSGSKSGNTAILTISGTQAMDEADYYCQAWDRNVVFGGGTKLTVL
As to B10, in assay [2], the dissociation constant (Kd) was 0.57 nM. The Receptor-ligand % inhibition in the assay with human TREM-1 [3] was determined as 101%.

B11: 64D7 Fab (Fab, V domains shown)
VH: QVQLVQSGAEVKKPGASVKVSCKASGYTFTSYDINWVRQATGQGLEWMGWMNPNRGNTGYVKKFQGRVTMTRNTSISTAYMELSSLRSEDTAVYYCARRRAVYRSSWEWYFDLWGRGTLVTVSS
VL: DTQMTQSPSSLSASEGDRVTITCQASQDIFNDLNWYQEKPGKAPKLLIYHASNLETGVPSRFSGSGSGTDYTFTISSLQPEDIATYYCQQYGNLPLTFGGGTKVEIK
For the molecule B11, in the assay with human TREM-1 [1], the “Fab IC50-pSYK Assay (Trial 1), PGLYRP1/PGN-induced SYK phosphorylation” value is 229 pM and the “Fab IC50-pSYK Assay (Trial 2), PGLYRP1/PGN-induced SYK phosphorylation” value worked out at 70 pM.

B12: 44A5 Fab (Fab, V domains shown)
VH: EVQLLESGGGLVQPGGSLRLSCAASGFTFSTYAMNWVRQAPGKGLEWVSTVSGSGRPTYYADSVKGRFTISRDNSKNTLYLQMNSLRAEDTAVYYCAKAYYSNYLFDYWGQGTLVTVSS
VL: EIVMTQSPAILSVSPGERATLSCRASQSVSSNLAWYQQKPGQAPRLLIYGASTRATGVPARFSGGGSGTDFTLTISSLQSEDFAVYYCQHCKTWPPLTFGGGTKVDLK
Turning to B12, in the assay with human TREM-1 [1], the “Fab IC50-pSYK Assay (Trial 1), PGLYRP1/PGN-induced SYK phosphorylation” value is 189 pM and the “Fab IC50-pSYK Assay (Trial 2), PGLYRP1/PGN-induced SYK phosphorylation” value turned out to be 325 pM.

B13: 49A2 Fab (Fab, V domains shown)
VH: EVQLVESGGGLVQPGGSLRLSCAASGFTFSSNWMSWVRQAPGKGLDWMASMKQDGSEIYYVDSVKGRFTISRDNAKNSLHLQMNSLRAEDTAVYYCVRGGWRFESWGQGALVTVSS
VL: EIVMTQSPATLSVSPGERATLSCRASQSVSSNLAWYQQKSGQAPRLLIYGASIRATGIPARVSGSGSGTEFTFTISSLQSEDFAVYYCQQYKNWPLTLGGGTKVEIK
B13: in the assay with human TREM-1 [1], the “Fab IC50-pSYK Assay (Trial 1), PGLYRP1/PGN-induced SYK phosphorylation” value came to 1180 pM and the “Fab IC50-pSYK Assay (Trial 2), PGLYRP1/PGN-induced SYK phosphorylation” value came to 787 pM.

Usually Kd stands for the equilibrium constant for the complex coming apart.
